Antibody variant affinities, Ab-91 heavy chain, assay 2

The measurements come from Engelhart et al. 2022 (doi:10.1038/s41597-022-01779-4) through the FLAb antibody collection.

The target is the same throughout: PDVDLGDISGINAS, from the HR2 region of SARS-CoV-2 spike.

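Library AAYL51 holds single substitutions and randomly drawn double and triple substitutions in the CDRs. Affinity was read by AlphaSeq, a pooled yeast mating assay with surface-displayed partners. Pairs that bind mate more often; barcode pairs of the diploids are counted by sequencing. A regression on co-assayed BCL2-family reference pairs converts the normalised counts of each replicate to an apparent Kd. There are three technical replicates.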

Each scFv is VL, a 15-residue (Gly4Ser)3 linker, VH, as in the parent Ab-91, and differs from it in the CDRs of the heavy chain only.
VL: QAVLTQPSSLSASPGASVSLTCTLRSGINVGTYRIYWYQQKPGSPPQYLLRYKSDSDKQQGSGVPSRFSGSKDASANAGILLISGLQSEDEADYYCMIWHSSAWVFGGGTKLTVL
VH: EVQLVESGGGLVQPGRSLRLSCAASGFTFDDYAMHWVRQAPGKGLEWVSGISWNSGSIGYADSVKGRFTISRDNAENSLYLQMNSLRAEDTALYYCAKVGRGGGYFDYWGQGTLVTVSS

Each variant is given by its three heavy chain CDRs, as the data file delimits them; those of the parent are GFTFDDYAMH, GISWNSGSIGYADSVK, VGRGGGYFDY. Scale: log10 of Kd in nM, estimated from mating counts; low values are strong binders. The mean shown is taken over the replicates in which the pair was detected. "not detected" marks a missing value. The strain was present, yet no cells mated with the target were sequenced in any replicate, which points to weak or no binding. In this assay the parent's reference entry averaged 1.86; its copy inside this library read 0.88. Background: pairings of library AAYL51 with three empty control strains gave a value in 21% of cases (median 4.54, 5th percentile 3.26). Values in that range, when seen in few replicates, are hard to tell from nonspecific mating. Also given: how often the same scFv was detected with the empty control strains.

CDR-H1,CDR-H2,CDR-H3,mean log10 Kd (nM),replicates with signal,control signals
GMTFDDRAMH,GIYWNSGSIGYADSVK,VGRGGGYFDY,5.45,3/3,7/9
GFTFDDYAMH,GESWRSGSIGYAVSVK,VGRGGGYFDY,4.72,1/3,3/9
GFTFDDYPPH,GISWNSGSIGYANSVK,VGRGGGYFDY,not detected,0/3,0/9
GFSFDDYAMH,GISWNWGSIGYADSVK,VGRIGGYFDY,6.00,1/3,5/9
GFTFDDYAMH,GISWNTGSKGYADSVK,VGRGGAYFDY,0.34,3/3,8/9
GFTFDDYAMH,GISWNNGSIGYADSVK,VGRGTGEFDY,4.29,2/3,4/9
GCTFDDYSMH,GISWNSGSIGYADSVK,VTRGGGYFDY,1.97,3/3,0/9
GFTFDDYAMH,GISSNSGSIGDADDVK,VGRGGGYFDY,3.92,2/3,0/9
GFTFDDYAMP,GISWNSGSKGYHDSVK,VGRGGGYFDY,4.70,2/3,4/9
GFTFDDYAMH,GISWNSGWIGYADSVK,VGVMGGYFDY,not detected,0/3,2/9
GFTFDDYAMH,GISWNSGSIGYADPVK,VFRFGGYFDY,not detected,0/3,2/9
GFVSDDYHMH,GISWNSGSIGYADSVK,VGRGGGYFDY,5.21,2/3,8/9
GFTFDDYAMH,GISWMWGSIGYADSVK,IGRGGGYFDY,not detected,0/3,1/9
GQTFDDYAMH,GISWNSGSIGYASSVK,VGNGGGYFDY,4.30,2/3,6/9
GFTFDDYAMH,GISWNSPSIGYAYSVK,VGRGGGYFDY,not detected,0/3,1/9
GFTFDDYAMH,GISWNSGSIGEADSVK,VGRCGGYPDY,not detected,0/3,1/9
GWTFDDYAMM,GISWNSGSIGYADSVW,VGRGGGYFDY,5.72,1/3,2/9
GFTADDYARH,GISWNSGSIGYADSVK,VGRGGGYFDF,not detected,0/3,1/9
GFTFDDYAMH,GISWNSGSIFYADSVK,VGRGGGYFHT,not detected,0/3,0/9
GFTFDDYAMH,GIFWNSGSIGYAASVK,VLRGGGYFDY,not detected,0/3,2/9
GDTFDDYAMH,GQSWNSGSIGYADSVK,VGRSGGYFDY,4.91,3/3,7/9
GFTFDDYCMH,GISWNSGSIGYADWVK,VGREGGYFDY,not detected,0/3,0/9
GFTFDDYASM,GISWNSGSIGYADSVF,VGRGGGYFDY,4.16,1/3,3/9
GFTFKDYAMH,GHSWNSGSIHYADSVK,VGRGGGYFDY,3.30,1/3,0/9
GFTFDDKAMH,GISWNSGSIGYAWSVL,VGRGGGYFDY,4.46,1/3,1/9
GFQFDDYAMH,GISWNSGSIGYADLVK,VGRGGGYFDY,3.24,1/3,2/9
TFTFDDYAMH,GISWFSWSIGYADSVK,VGRGGGYFDY,not detected,0/3,1/9
GFTFDDYAME,WISWNSGSIGYADSVK,VGRGGGYFDY,5.15,2/3,0/9
GFTFDDYAMH,GHSWNSGSIVYADSVM,VGRGGGYFDY,4.17,1/3,1/9
GFTFDVYAMH,GISWNSGSIGYVDSVK,VGRGGGYFDV,4.28,2/3,7/9
GFTFDDYAMH,GISWNSGSITYALSVF,VGRGGGYFDY,not detected,0/3,1/9
KITFDDYAMH,GISWNSGSIGYADSVK,VGTGGGYFDY,5.41,3/3,2/9
GFTFDDYAMH,GISWNSGSKGYADSVK,LGRGFGYFDY,5.68,1/3,1/9
GFTFDDYAMH,GITANSGSIGYADSVG,VGRGGGYFDY,4.15,2/3,2/9
GGTFDDYAMH,GISWNYGSIGYADSVK,VGRGGGYFDY,not detected,0/3,0/9
GFTFDDYAMH,PISWNKGSSGYADSVK,VGRGGGYFDY,not detected,0/3,0/9
GDAFDDYAMH,GISWNSGSIGSADSVK,VGRGGGYFDY,not detected,0/3,4/9
GFTFDDYSMH,GILWNSGSIGYADSVK,VGRYGGYFDY,4.38,1/3,2/9
GFTFDDYAMH,GISWNSGSIGYLDSVR,VGCGGGYFDY,3.24,1/3,0/9
GFTFDDYAMH,GISWNSGSIGYADSVK,VGIKHGYFDY,not detected,0/3,0/9
GFTFDDCMMH,GISWNSGSIGYADSVK,VGRGGGVFDY,4.78,2/3,5/9
GFTFDDYAMH,GISWNSGSIGYADSMK,VGRGGGCFNY,not detected,0/3,2/9
GFTFDDYAMH,SFSENSGSIGYADSVK,VGRGGGYFDY,5.26,1/3,3/9
GFTFDDYAMH,GIYWNSGSWGYADSVK,VGRGGYYFDY,5.00,1/3,5/9
GFTFDDYAMH,GDSWNSGSIGYCSSVK,VGRGGGYFDY,5.32,1/3,0/9
GFTFDDMAYH,GISWNSGSIGYADSVR,VGRGGGYFDY,not detected,0/3,0/9
GFTFDDYAMH,GISSNSGSIGYADSVK,VGRGGTYFSY,not detected,0/3,0/9
GMTFDDYAMH,GISWNSGSIGYADSVK,VGVGGGYFDD,3.58,3/3,3/9
GFTFDDYAMH,GISWNSGSIGYADSVK,IGPGGGYFSY,2.93,1/3,1/9
GFTFDDMAMH,GISWWSGSIGYADSVK,VGRGQGYFDY,not detected,0/3,0/9